From patent publication US11020397B2, “Compounds and their use for reducing uric acid levels” (Acquist LLC, priority 2016, dated 2021)

The chains behind the UniProt entries cited, without tags or fusion partners. Where a name states a change or a piece, a line headed by the entry shows the natural chain unless it says otherwise.
UniProt Q96S37: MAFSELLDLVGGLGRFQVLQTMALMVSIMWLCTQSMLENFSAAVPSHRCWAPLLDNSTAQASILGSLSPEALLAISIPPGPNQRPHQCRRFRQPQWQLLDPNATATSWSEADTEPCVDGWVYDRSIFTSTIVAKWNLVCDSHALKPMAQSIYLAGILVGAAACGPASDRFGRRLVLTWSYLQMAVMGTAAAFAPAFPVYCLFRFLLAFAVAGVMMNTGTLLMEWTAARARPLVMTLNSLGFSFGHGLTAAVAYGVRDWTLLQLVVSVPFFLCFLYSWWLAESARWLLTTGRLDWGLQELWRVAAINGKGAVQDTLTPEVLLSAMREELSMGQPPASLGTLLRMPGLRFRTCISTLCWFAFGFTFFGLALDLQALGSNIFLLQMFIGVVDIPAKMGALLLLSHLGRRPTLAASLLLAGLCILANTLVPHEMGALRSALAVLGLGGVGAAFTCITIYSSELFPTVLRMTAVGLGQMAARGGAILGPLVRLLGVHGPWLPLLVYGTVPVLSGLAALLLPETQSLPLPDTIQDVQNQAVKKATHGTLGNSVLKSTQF

Biological target: URAT1 (SLC22A12) (Homo sapiens (Human), UniProt Q96S37)
Settings: for IC50: read-out: URAT1 IC50, URAT1 assay as described herein, URAT-1/CHO cells, 3H-orotate transport

| IC50 | URAT1 inhibition, verbal rating | SMILES | URAT1 inhibition, verbal rating (compared to lesinurad) |
| --- | --- | --- | --- |
| 19.9 µM | – | CSc1nc(O)c(C(=O)Nc2ncc(-c3c[nH]nn3)cc2C(F)(F)F)c(=O)[nH]1 [Formula (II8), N-(5-(1H-1,2,3-triazol-4-yl)-3-(trifluoromethyl)pyridin-2-yl)-4-hydroxy-2-(methylthio)-6-oxo-1,6-dihydropyrimidine-5-carboxamide] | – |
| > 90 µM | – | CSc1nc(O)c(C(=O)Nc2ccc(-c3c[nH]nn3)c(F)c2F)c(=O)[nH]1 [Formula (IIaa), N-(2,3-difluoro-4-(1H-1,2,3-triazol-4-yl)phenyl)-4,6-dihydroxy-2-(methylthio) pyrimidine-5-carboxamide] | – |
| 2.43 µM | effectively inhibit URAT1 | CCSc1nc(O)c(C(=O)Nc2ccc(-c3c[nH]nn3)cc2)c(=O)[nH]1 [Formula (IIl), N-(4-(1H-1,2,3-triazol-4-yl)phenyl)-2-(ethylthio)-4-hydroxy-6-oxo-1,6-dihydropyrimidine-5-carboxamide] | – |
| > 100 µM | – | CC(C)Sc1nc(O)c(C(=O)Nc2ccc(-c3c[nH]nn3)cc2C(F)(F)F)c(=O)[nH]1 [Formula (II7), N-(4-(1H-1,2,3-Triazol-5-yl)-2-(trifluoromethyl)phenyl)-4-hydroxy-2-(isopropyl-thio)-6-oxo-1,6-dihydropyrimidine-5-carboxamide] | – |
| 19.9 µM | – | CSc1nc(O)c(C(=O)Nc2c(F)cc(-c3c[nH]nn3)cc2F)c(=O)[nH]1 [Formula (IIt), N-(2,6-Difluoro-4-(1H-1,2,3-triazol-4-yl)phenyl)-4-hydroxy-2-(methylthio)-6-oxo-1,6-dihydropyrimidine-5-carboxamide] | – |
| > 40 µM | – | CSc1nc(O)c(C(=O)Nc2ccc(-c3c[nH]nn3)nc2)c(=O)[nH]1 [Formula (IIii), N-(6-(1H-1,2,3-triazol-4-yl)pyridin-3-yl)-4-hydroxy-2-(methylthio)-6-oxo-1,6-dihydropyrimidine-5-carboxamide] | – |
| > 50 µM | – | CCSc1nc(O)c(C(=O)Nc2ccc(-c3nn[nH]n3)cc2)c(=O)[nH]1 [Formula (IIp), N-(4-(1H-tetrazol-5-yl)phenyl)-2-(ethylthio)-4-hydroxy-6-oxo-1,6-dihydropyrimidine-5-carboxamide] | – |
| > 3.5 µM | effectively inhibit URAT1 | CSc1nc(O)c(C(=O)Nc2ccc(-c3c[nH]nn3)cc2F)c(=O)[nH]1 [Formula (IIs), N-(2-Fluoro-4-(1H-1,2,3-triazol-4-yl)phenyl)-4-hydroxy-2-(methylthio)-6-oxo-1,6-dihydropyrimidine-5-carboxamide] | – |
| > 90 µM | – | CN(C)CCSc1nc(O)c(C(=O)Nc2ccc(-c3c[nH]nn3)cc2F)c(=O)[nH]1 [Formula (IIbb), 2-((2-(dimethylamino)ethyl)thio)-N-(2-fluoro-4-(1H-1,2,3-triazol-4-yl)phenyl)-4-hydroxy-6-oxo-1,6-dihydropyrimidine-5-carboxamide] | – |
| 1.85 µM | effectively inhibit URAT1 | CSc1nc(O)c(C(=O)Nc2ccc(-c3c[nH]nn3)c(F)c2)c(=O)[nH]1 [Formula (IIr), N-(3-Fluoro-4-(1H-1,2,3-triazol-4-yl)phenyl)-4-hydroxy-2-(methylthio)-6-oxo-1,6-dihydropyrimidine-5-carboxamide] | – |
| 18.5 µM | – | CC(C)Sc1nc(O)c(C(=O)Nc2ccc(-c3c[nH]nn3)cc2F)c(=O)[nH]1 [Formula (IIv), N-(2-Fluoro-4-(1H-1,2,3-triazol-4-yl)phenyl)-4-hydroxy-2-(isopropylthio)-6-oxo-1,6-dihydropyrimidine-5-carboxamide] | – |
| 4.9 µM | – | CSc1nc(O)c(C(=O)Nc2ccc(-c3c[nH]nn3)cc2OC(F)(F)F)c(=O)[nH]1 [Formula (II3), N-(4-(1H-1,2,3-triazol-4-yl)-2-(trifluoromethoxy)phenyl)-4-hydroxy-2-(methylthio)-6-oxo-1,6-dihydropyrimidine-5-carboxamide] | particularly potent inhibitors of URAT1 compared to lesinurad |
| 1.08 µM | effectively inhibit URAT1 | CC(C)Sc1nc(O)c(C(=O)Nc2ccc(-c3c[nH]nn3)cc2)c(=O)[nH]1 [Formula (IIi), N-(4-(1H-1,2,3-triazol-5-yl)phenyl)-4-hydroxy-2-(isopropylthio)-6-oxo-1,6-dihydropyrimidine-5-carboxamide] | – |
| > 100 µM | – | CSc1nc(O)c(C(=O)Nc2ccc3nc(-c4c[nH]nn4)ccc3c2)c(=O)[nH]1 [Formula (II10), N-(2-(1H-1,2,3-triazol-4-yl)quinolin-6-yl)-4-hydroxy-2-(methylthio)-6-oxo-1,6-dihydropyrimidine-5-carboxamide] | – |
| 2.3 µM | – | CSc1nc(O)c(C(=O)Nc2ccc(-c3c[nH]nn3)cc2OC(F)F)c(=O)[nH]1 [Formula (II4), N-(2-(difluoromethoxy)-4-(1H-1,2,3-triazol-4-yl)phenyl)-4-hydroxy-2-(methylthio)-6-oxo-1,6-dihydropyrimidine-5-carboxamide] | particularly potent inhibitors of URAT1 compared to lesinurad |
| ≥ 30 µM | – | CC(C)Sc1nc(O)c(C(=O)Nc2c(F)cc(-c3c[nH]nn3)cc2F)c(=O)[nH]1 [Formula (IIx), N-(2,6-Difluoro-4-(1H-1,2,3-triazol-4-yl)phenyl)-4-hydroxy-2-(isopropylthio)-6-oxo-1,6-dihydropyrimidine-5-carboxamide] | – |
| 14.2 µM | effectively inhibit URAT1 | CC(C)CSc1nc(O)c(C(=O)Nc2ccc(-c3c[nH]nn3)cc2)c(=O)[nH]1 [Formula (IIq), N-(4-(1H-1,2,3-triazol-4-yl)phenyl)-4-hydroxy-2-(isobutylthio)-6-oxo-1,6-dihydropyrimidine-5-carboxamide] | – |
| 7.5 µM | – | CSc1nc(O)c(C(=O)Nc2ccc(-c3c[nH]nn3)cc2C#N)c(=O)[nH]1 [Formula (II5), N-(2-cyano-4-(1H-1,2,3-triazol-4-yl)phenyl)-4-hydroxy-2-(methylthio)-6-oxo-1,6-dihydropyrimidine-5-carboxamide] | particularly potent inhibitors of URAT1 compared to lesinurad |

| SMILES | IC50 | URAT1 inhibition, verbal rating | URAT1 inhibition, verbal rating (compared to lesinurad) |
| --- | --- | --- | --- |
| CC(C)Sc1nc(O)c(C(=O)Nc2ccc(-c3c[nH]nn3)c(F)c2)c(=O)[nH]1 [Formula (IIw), N-(3-Fluoro-4-(1H-1,2,3-triazol-4-yl)phenyl)-4-hydroxy-2-(isopropylthio)-6-oxo-1,6-dihydropyrimidine-5-carboxamide] | > 30 µM | – | – |

Like-named read-outs stand apart in the source and are kept apart here.
